Test results: US6518480B1 (priority 1996, dated 2003)
Values joined by “and” are separate entries in the source; they are usually repeats but may differ in a detail not shown here. Identical values can stand only once.

Protein sequences, listed by entry. Tags and fused reporters are not part of them. Lines headed by an entry give the natural chain unless they say otherwise; changes in a name come on top.
UniProt P41145: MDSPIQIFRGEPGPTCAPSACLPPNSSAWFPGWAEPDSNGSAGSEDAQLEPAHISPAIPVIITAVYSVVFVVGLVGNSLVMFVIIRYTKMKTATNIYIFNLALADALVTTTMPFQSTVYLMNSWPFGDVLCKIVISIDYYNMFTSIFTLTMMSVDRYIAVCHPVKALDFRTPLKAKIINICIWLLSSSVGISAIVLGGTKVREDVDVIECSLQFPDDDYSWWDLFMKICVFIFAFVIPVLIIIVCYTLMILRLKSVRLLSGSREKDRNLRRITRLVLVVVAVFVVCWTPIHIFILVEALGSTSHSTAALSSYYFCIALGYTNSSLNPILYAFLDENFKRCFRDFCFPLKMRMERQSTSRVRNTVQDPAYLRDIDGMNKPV

Experiments:
OR1-expressing mice = assay: EKG after spiradoline injection in OR1-expressing double transgenic mice; conditions: 2 mg intraperitoneally
[1] = system: OR2-expressing rat 1a fibroblasts
control mice = assay: EKG after spiradoline injection in control mice (littermate with only the MHCα-tTA transgene); conditions: control mice following spiradoline injection
Wild-type KOR = Wild-type KOR (Homo sapiens, UniProt P41145); assay: Ligand binding to wild-type KOR expressed in COS-7 and CHO-KI cells
OR1 [2] = target: OR1 (Homo sapiens, UniProt P41145, G198V/DELINS201-226PRDGAVVCMLQFPSPSWYWDTVT, form not given); assay: Ligand binding to the RASSL OR1 expressed in COS-7 and CHO-KI cells; conditions: read-out: Ki, OR1 (unit inferred); spiradoline binding
OR1 [3] = assay: as above; parameters: species or system human
OR2 [4] = target: OR2 (Homo sapiens, UniProt P41145, G198V/DELINS201-226PRDGAVVCMLQFPSPSWYWDTVT/E297Q, form not given); assay: Ligand binding to the RASSL OR2 expressed in COS-7 and CHO-KI cells; conditions: read-out: Ki, OR2 (unit inferred); spiradoline binding
OR2 [5] = assay: as above; parameters: species or system human
[6] = relative to binding to wild-type KOR

CN(C(=O)Cc1ccc(Cl)c(Cl)c1)C1CCC2(CCCO2)CC1N1CCCC1 (stereo not shown)
Conduction on EKG after injection (OR1-expressing mice; more apparent in the 5-minute recordings): apparent conduction defect consistent with atrioventricular heart block
Heart rate on EKG after injection (OR1-expressing mice; recordings a few seconds after injection, anesthetized double transgenic mice): markedly decreased heart rate
Increase in cell proliferation over exposure to the selected natural ligand dynorphin ([1]; OR2-expressing rat 1a fibroblasts, 3H-thymidine incorporation): 20-50 fold
Growth Signal, decrease (summary), OR2 ([1]; summary table, ↓ = decrease versus wild-type KOR): NC
Atrioventricular block or other changes in EKG wave form (control mice): not observed
Ki (Wild-type KOR; read-out: Ki, human KOR (unit inferred), spiradoline binding): 1.13 nM and 1.32 nM
Fold decrease in binding, Wild-type KOR (Wild-type KOR; [6]): 1 fold
Ki (OR1 [2]): 6.29 nM
Change in binding affinity of OR1 relative to native human KOR (OR1 [3]; OR1 versus native human KOR): relatively small change
Fold decrease in binding, OR1 (OR1 [3]; [6]): 4.8 fold
Ki (OR2 [4]): 5.65 nM
Change in binding affinity of OR2 relative to native human KOR (OR2 [5]; OR2 versus native human KOR): relatively small change
Fold decrease in binding, OR2 (OR2 [5]; [6]): 4.3 fold
